The values that follow come from patent publication US20130244896A1, “IN VITRO METHOD FOR PREDICTING WHETHER A COMPOUND IS GENOTOXIC IN VIVO” (priority 2012, published 2013).

Like-named read-outs stand apart in the source and are kept apart here.

The subject of data set [1] is microRNA 1262, microRNA 98 and microRNA 30c-1. The following applies: three microRNAs 1262, 98, 30c-1.
Data set [2] concerns microRNAs 885-3p, 888*, 98, 1262, 1229, 30c-1*, 891b, 302b, 1246, and 502-3p.
Setting [3] is: correct predictions out of 30 (ten microRNAs x three experiments).

On to `Clc1cc2c(cc1Cl)Oc1cc(Cl)c(Cl)cc1O2` [2,3,7,8-tetrachloro dibenzo-p-dioxin], for which the “Aggregate result, result” value in data set [1] and in data set [2] (ten microRNAs) was “NGTX (predicted to be in vivo NGTX when more than 50% of the microRNAs gave the prediction in vivo NGTX than in vivo GTX)” each time. Further, in data set [2] (setting [3]), the “Aggregate result, correct” value is reported as 23/30.
As to `Oc1cccc2cccnc12` [8-quinolinol], the “Aggregate result, result” value in data set [2] is on record as “NGTX”. Further, the “Aggregate result, correct” value in data set [2] (human) is 19/30.
Consider `C[C@]12CC[C@@H]3c4ccc(O)cc4CC[C@H]3[C@@H]1CC[C@@H]2O` [17beta-estradiol, 17 beta-estradiol], for which the “Aggregate result, result” value in data set [1] and in data set [2] (ten microRNAs) was “NGTX (predicted to be in vivo NGTX when more than 50% of the microRNAs gave the prediction in vivo NGTX than in vivo GTX)” in each case. Further, in data set [2] (setting [3]), the “Aggregate result, correct” value is 17/30.
With `CC1(C)S[C@@H]2[C@H](NC(=O)[C@H](N)c3ccccc3)C(=O)N2[C@H]1C(=O)O` [Ampicillin trihydrate], the “Aggregate result, result” value in data set [1] and in data set [2] (ten microRNAs) was “NGTX (predicted to be in vivo NGTX when more than 50% of the microRNAs gave the prediction in vivo NGTX than in vivo GTX)” in each case. For the same compound, the “Aggregate result, correct” value in data set [2] (setting [3]) is reported as 25/30.
As to `c1ccc2c(c1)cc1ccc3cccc4ccc2c1c34` [Benzo[a]pyere], the “Aggregate result, result” value in data set [1] and in data set [2] (ten microRNAs) was “GTX (predicted to be in vivo GTX when more than 50% of the microRNAs gave the prediction in vivo GTX than in vivo NGTX)” in each case. The “Aggregate result, correct” value in data set [2] (setting [3]) is given as 23/30.
Take `N.N.[Cl][Pt][Cl]` [Cisplatin]: the “Aggregate result, result” value in data set [1] and in data set [2] (ten microRNAs) was “GTX (predicted to be in vivo GTX when more than 50% of the microRNAs gave the prediction in vivo GTX than in vivo NGTX)” each time. In addition, the “Aggregate result, correct” value in data set [2] (setting [3]) was 24/30.
Turning to `O=c1c(O)c(-c2ccc(O)c(O)c2)oc2cc(O)cc(O)c12` [Quercetin], the “Aggregate result, result” value in data set [1] and in data set [2] (ten microRNAs) was “NGTX (predicted to be in vivo NGTX when more than 50% of the microRNAs gave the prediction in vivo NGTX than in vivo GTX)” in each case. Also, the “Aggregate result, correct” value in data set [2] (setting [3]) was 16/30.
